Values of other authors in PMC3121697, “Predicting Binding to P-Glycoprotein by Flexible Receptor Docking” (PLoS Computational Biology, 2011).
Like-named read-outs stand apart in the source and are kept apart here.

System: P-gp
Details: cited from earlier work

SMILES | P-gp interaction | P-gp interaction (not told)
Cc1nc2n(c(=O)c1CCN1CCC(c3noc4cc(F)ccc34)CC1)CCCC2 [Risperidone] | Y | 
CCOC(=O)c1ncn2c1CN(C)C(=O)c1cc(F)ccc1-2 [Flumazenil] |  | N
CC(C)CN(C[C@@H](O)[C@H](Cc1ccccc1)NC(=O)O[C@H]1CCOC1)S(=O)(=O)c1ccc(N)cc1 [Amprenavir] |  | Y
